Values quoted from earlier work, collected in patent publication US20170007620A1, “Method of replenishing steroid hormones in neutered mammals comprising administration of dehydroepiandrosterone (DHEA) and specific metabolites in order to increase steroid hormone levels from those of neutered mammals associated with high cancer risk, to steroid hormone levels of gonadally-intact …” (priority 2015, published 2017).

Tested on: NK cells
Conditions: cited from earlier work

## C[C@]12CC[C@H](O)CC1=CC[C@@H]1[C@@H]2CC[C@]2(C)C(=O)CC[C@@H]12 [DHEA, Dehydroepiandrosterone]
  NK cell number and cytotoxicity: increase
